## Binding of CDR-mutated scFvs to a peptide of the spike HR2 region

From the AlphaSeq antibody data of Li et al. 2023 (doi:10.1038/s41467-023-39022-2), copy in the FLAb collection.

The target is the same throughout: PDVDLGDISGINAS, from the HR2 region of SARS-CoV-2 spike.

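Phage display of a naive human antibody library on the peptide gave the parent. Designed CDR sequences, proposed from the first random library and measured here. Several design methods are mixed in this list. Affinity was read by AlphaSeq, a pooled yeast mating assay with surface-displayed partners. The frequency of each diploid, read from paired DNA barcodes, reflects how well the two displayed proteins bind. The ratio of observed to expected reads was calibrated, replicate by replicate, on BCL2-family standards whose Kd was known from biolayer interferometry. Mating was done six times.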

The variants keep the light chain, the linker and the frameworks of Ab-14 (scFv order VH, a 15-residue (Gly4Ser)3 linker, VL).
VH: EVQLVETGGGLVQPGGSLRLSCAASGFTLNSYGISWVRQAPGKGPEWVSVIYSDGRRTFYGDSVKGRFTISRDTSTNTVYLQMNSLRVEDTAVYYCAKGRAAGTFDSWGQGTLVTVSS
VL: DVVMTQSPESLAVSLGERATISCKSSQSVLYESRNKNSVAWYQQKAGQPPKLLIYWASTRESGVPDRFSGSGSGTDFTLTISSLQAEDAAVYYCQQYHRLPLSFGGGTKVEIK

The parent's heavy chain CDRs are GFTLNSYGIS, VIYSDGRRTFYGDSVK, GRAAGTFDS; each variant's own CDRs replace them letter for letter.
Numbers give log10(Kd / nM), so 0 is 1 nM and 3 is 1 µM. Smaller is tighter.
Replicates are averaged; those with no signal do not enter the mean.
An entry "nd" has no value in the source: the pair was not observed among the diploids in any replicate. This suggests poor binding but is not conclusive.
The range of this assay differs from that of the first round, and the authors advise against merging the two.

| CDR-H1 | CDR-H2 | CDR-H3 | log10 Kd (nM), mean | seen in |
|---|---|---|---|---|
| GFNLDEYGIS | VIYADGRRTFYQDDVK | GNVAGTFDV | nd | 0 of 6 |
| GFDLNEYGIS | VIYADGVRTAYSDDVK | GENAGTFDI | -0.47 | 6 of 6 |
| GFDLNEYGIS | VIYADGLRTFYTDSVK | GQLAGTFDT | -0.68 | 6 of 6 |
| GFDLNEYGIS | VIYADGQRTAYADSVK | GETAGTFDM | 1.27 | 3 of 6 |
| GFTLNQYGIS | VIMSDGRRTFYSDPVK | GRAAGWFDS | nd | 0 of 6 |
| GFNLDEYGIS | VIYADGRRTFYQDSVK | GNVAGTFDV | -0.80 | 6 of 6 |
| GITLNSYGIS | VIYSDGMRTFYGDSVK | GRAAGTFDS | 1.74 | 5 of 6 |
| GFSLNEYGIS | VIYSDGRRTFYGDSVK | GRTAGTFDS | -0.20 | 6 of 6 |
| GFTLNSYGIS | VIYSDGSRTFYGDSVK | GREAGQFDS | 1.73 | 1 of 6 |
| GFDLNEYGIS | VIYADGRRTFYADSVK | GQVAGTFIQ | -0.35 | 6 of 6 |
| GFSLNSYGIS | VIYSDGRRTFYQDQVK | GEAAGTFDS | 1.51 | 5 of 6 |
| GFDLNEYGIS | VIYADGMRQAYADSVK | GTNAGTFDV | 0.58 | 6 of 6 |
| SFTLNSYGIS | VIYSDGQRTFYIDSVK | GRIAGTFDS | nd | 0 of 6 |
| GFDLNEYGIS | VIYADGMRTFYSDSVK | GQLAGTFDF | -0.61 | 6 of 6 |
| GKDIDEYGIS | VIYADGIRTFYIDRVK | GNLGGQFDM | nd | 0 of 6 |
| GFDLNEYGIS | VIYADGVRTAYSDSVK | GNQAGTFDT | -0.59 | 6 of 6 |
| GFTLNSYVIS | VIYEDGRRTFYEDSVV | GRAAGTSDS | nd | 0 of 6 |
| GFTLNSYGIS | VIYSDGRRTFYGDSVK | GHWAGRFDS | nd | 0 of 6 |
| GFKLNSYGIS | VIYSDGRRTFYKDSVK | GQAAGTFDL | 3.51 | 2 of 6 |
| GFDLNEYGIS | VIYADGMRSAYADDVK | GNVAGTFDV | -0.41 | 6 of 6 |
| GFDLNEYGIS | VIYADGMRTSYADSVK | GNNAGTFDL | 0.17 | 6 of 6 |
| GFDLNEYGIS | VIYADGSRTAYSDSVK | GNNAGTFDV | 0.01 | 6 of 6 |
| GFDLNEYGIS | VIYADGRRTFYVDSVK | GQIAGTFDQ | -0.55 | 6 of 6 |
| GFDLNEYGIS | VIYADGMRTAYSDSVK | GEIAGTFDQ | -0.47 | 6 of 6 |
| GFDLNEYGIS | VIYADGMRTAYVDDVK | GQNAGTFDV | -0.26 | 6 of 6 |
| GFDLNEYGIS | VMYADGSRRVYQDKVK | GFQSGTFDT | -0.30 | 6 of 6 |
| GFSLNSYGIS | VIYADGRRTFYGDSVK | GKAAGTFDA | -0.10 | 6 of 6 |
| GFDLNEYGIS | VIYADGVRTAYTDSVK | GNVAGTFDV | -0.49 | 6 of 6 |
| GFDLNEYGIS | VIYADGTRTFYADSVK | GQLAGTFDI | -0.02 | 6 of 6 |
| GFTINSYGIS | VIYSDGRRTFYIDSVK | GRAAGTFDS | 1.98 | 4 of 6 |
| GFTLNSYGIS | VIYSDGRRTFYGDSVK | GFAAGTFDS | 0.32 | 6 of 6 |
| GQDLNEYGIS | VIYADGVRTAYAISFK | GYHGSQFDI | nd | 0 of 6 |
| GFTLNSYGIS | VIYADGRRTFYGDSVK | GRAAGTPKS | nd | 0 of 6 |
| GFDLNEYGIS | VIYADGRRTAYSDSVK | GNVAGTFDQ | -1.16 | 6 of 6 |
| GFTLNEYGIS | VIYSDPRRTFYGDSVK | GRAAGTFDS | nd | 0 of 6 |
| GFDLNEYGIS | VIYADGKRSFYADSVK | GNVAGTFDV | -0.33 | 6 of 6 |
| GESLDQYGIS | VIYADGVRTSYTNSVK | GVWAGTFMQ | nd | 0 of 6 |
| GFTLNDYGIS | VIYSDGRRMYYIDSVK | GRAAGTFDS | 0.57 | 6 of 6 |
| GFDLNEYGIS | VIYADGVRTAYSDSVK | GNEAGTFDL | -0.22 | 6 of 6 |
| GFDLNEYGIS | VIYADGRRTAYSDSVK | GETAGTFDQ | 0.48 | 6 of 6 |
| GFTLNDYGIS | VIYSDGRRTFYGDSVK | GRMAGTFDS | 0.71 | 6 of 6 |
| GFDLEDYGIS | VIYADGRRTFYSDSVK | GEIAGTFDV | -0.41 | 6 of 6 |
| GFSLEEYGIS | VIYADGMRTNYAESVK | GNFDLQEGY | nd | 0 of 6 |
| GVTLNSYGIS | VIYSDGRRTFYGDSVE | GLAAGTFDS | nd | 0 of 6 |
| GFDLNSYGIS | VIYSDGRRTFYQDSVK | GRTAGTFDV | 0.28 | 6 of 6 |
| GFDLEEYGIS | VIYADGRRTAYADSVK | GEVAGTFDV | -0.17 | 6 of 6 |
| GFTLNSYGIS | VIYSDGRRTFMSDSVK | GRAAGTFDS | 1.61 | 6 of 6 |
| GWDLDEYGIS | VIYADGVRTAYQDDVK | GQEAGFLYT | nd | 0 of 6 |
| GFDLDEYGIS | VIYADGMRTFYTDSVK | GEAAGTFDA | -0.34 | 5 of 6 |
| GFDLNSYGIS | VIYSDGMRTFYGDSVK | GRTAGTFDS | 0.22 | 6 of 6 |
| GFELNSYGIS | VIYSDGRRTFYADSVK | GKTAGTFDA | 0.52 | 6 of 6 |
| GFDLNEYGIS | VIYADGMRTYYADSVK | GNTAGTFDI | -0.23 | 6 of 6 |
| GFTLNSYGIS | VIYSDGRRTFYGDSVK | GRQPGTFDS | 2.46 | 6 of 6 |
| GFDLDEYGIS | VIYADGIRTAYADSVK | GNNAGTFDV | -0.26 | 6 of 6 |
| GFDLNSYGIS | VIYSDGRRTFYGDQVK | GRTAGTFDM | 0.35 | 6 of 6 |

From the list, the first 3 with no signal in any replicate:

CDR-H1,CDR-H2,CDR-H3,"log10 Kd (nM), mean",seen in
GFNLDEYGIS,VIYADGRRTFYQDDVK,GNVAGTFDV,nd,0 of 6
GFTLNQYGIS,VIMSDGRRTFYSDPVK,GRAAGWFDS,nd,0 of 6
SFTLNSYGIS,VIYSDGQRTFYIDSVK,GRIAGTFDS,nd,0 of 6

Background: pairings of all heavy chain designs with three empty control strains gave a value in 1% of cases (median 2.08, 5th percentile 0.84). Values in that range, when seen in few replicates, are hard to tell from nonspecific mating.
The authors averaged sequences with at least three values out of six and counted those with two or fewer as poor binders.
The parent sequence was in this pool as ten entries: three were never detected, three once, and four in most replicates, with averages from 0.34 to 2.37.